Among the data in ChEMBL document CHEMBL1135889, “Novel 4-anilinoquinazolines with C-7 basic side chains: design and structure activity relationship of a series of potent, orally active, VEGF receptor tyrosine kinase inhibitors” (J Med Chem, 2002) are IC50 values, retold here.

Protein sequences, listed by entry. Tags and fused reporters are not part of them. Lines headed by an entry give the natural chain unless they say otherwise; changes in a name come on top.
UniProt P00533, whole entry: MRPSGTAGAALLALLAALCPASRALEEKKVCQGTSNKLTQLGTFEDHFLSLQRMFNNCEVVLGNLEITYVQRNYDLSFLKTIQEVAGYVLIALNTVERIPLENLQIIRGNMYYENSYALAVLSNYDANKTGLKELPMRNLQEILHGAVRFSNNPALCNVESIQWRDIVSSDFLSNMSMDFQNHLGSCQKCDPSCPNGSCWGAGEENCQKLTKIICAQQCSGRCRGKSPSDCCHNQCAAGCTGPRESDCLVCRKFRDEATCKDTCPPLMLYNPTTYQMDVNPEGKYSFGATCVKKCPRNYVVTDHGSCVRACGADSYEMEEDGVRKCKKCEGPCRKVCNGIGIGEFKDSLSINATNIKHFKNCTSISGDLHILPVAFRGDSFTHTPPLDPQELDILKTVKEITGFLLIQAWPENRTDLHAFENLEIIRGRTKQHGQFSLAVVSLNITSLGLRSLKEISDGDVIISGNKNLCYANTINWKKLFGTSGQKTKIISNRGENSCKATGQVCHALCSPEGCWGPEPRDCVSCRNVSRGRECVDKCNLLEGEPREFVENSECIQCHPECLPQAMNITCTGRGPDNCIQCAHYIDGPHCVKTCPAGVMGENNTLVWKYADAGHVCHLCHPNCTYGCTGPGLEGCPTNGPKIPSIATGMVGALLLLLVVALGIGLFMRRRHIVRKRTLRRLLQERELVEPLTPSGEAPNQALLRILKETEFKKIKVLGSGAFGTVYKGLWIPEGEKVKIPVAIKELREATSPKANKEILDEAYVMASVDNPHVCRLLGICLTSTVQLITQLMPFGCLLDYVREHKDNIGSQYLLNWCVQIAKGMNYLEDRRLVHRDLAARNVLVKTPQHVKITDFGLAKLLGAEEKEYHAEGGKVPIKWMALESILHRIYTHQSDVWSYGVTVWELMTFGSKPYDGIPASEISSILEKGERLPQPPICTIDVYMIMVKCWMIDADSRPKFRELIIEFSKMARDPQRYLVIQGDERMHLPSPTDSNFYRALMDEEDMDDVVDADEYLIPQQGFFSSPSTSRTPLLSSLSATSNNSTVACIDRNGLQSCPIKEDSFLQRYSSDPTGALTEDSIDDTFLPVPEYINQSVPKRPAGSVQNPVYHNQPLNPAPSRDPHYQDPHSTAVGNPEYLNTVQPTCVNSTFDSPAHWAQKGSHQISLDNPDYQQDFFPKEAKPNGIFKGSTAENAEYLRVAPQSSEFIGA
UniProt P17948, whole entry: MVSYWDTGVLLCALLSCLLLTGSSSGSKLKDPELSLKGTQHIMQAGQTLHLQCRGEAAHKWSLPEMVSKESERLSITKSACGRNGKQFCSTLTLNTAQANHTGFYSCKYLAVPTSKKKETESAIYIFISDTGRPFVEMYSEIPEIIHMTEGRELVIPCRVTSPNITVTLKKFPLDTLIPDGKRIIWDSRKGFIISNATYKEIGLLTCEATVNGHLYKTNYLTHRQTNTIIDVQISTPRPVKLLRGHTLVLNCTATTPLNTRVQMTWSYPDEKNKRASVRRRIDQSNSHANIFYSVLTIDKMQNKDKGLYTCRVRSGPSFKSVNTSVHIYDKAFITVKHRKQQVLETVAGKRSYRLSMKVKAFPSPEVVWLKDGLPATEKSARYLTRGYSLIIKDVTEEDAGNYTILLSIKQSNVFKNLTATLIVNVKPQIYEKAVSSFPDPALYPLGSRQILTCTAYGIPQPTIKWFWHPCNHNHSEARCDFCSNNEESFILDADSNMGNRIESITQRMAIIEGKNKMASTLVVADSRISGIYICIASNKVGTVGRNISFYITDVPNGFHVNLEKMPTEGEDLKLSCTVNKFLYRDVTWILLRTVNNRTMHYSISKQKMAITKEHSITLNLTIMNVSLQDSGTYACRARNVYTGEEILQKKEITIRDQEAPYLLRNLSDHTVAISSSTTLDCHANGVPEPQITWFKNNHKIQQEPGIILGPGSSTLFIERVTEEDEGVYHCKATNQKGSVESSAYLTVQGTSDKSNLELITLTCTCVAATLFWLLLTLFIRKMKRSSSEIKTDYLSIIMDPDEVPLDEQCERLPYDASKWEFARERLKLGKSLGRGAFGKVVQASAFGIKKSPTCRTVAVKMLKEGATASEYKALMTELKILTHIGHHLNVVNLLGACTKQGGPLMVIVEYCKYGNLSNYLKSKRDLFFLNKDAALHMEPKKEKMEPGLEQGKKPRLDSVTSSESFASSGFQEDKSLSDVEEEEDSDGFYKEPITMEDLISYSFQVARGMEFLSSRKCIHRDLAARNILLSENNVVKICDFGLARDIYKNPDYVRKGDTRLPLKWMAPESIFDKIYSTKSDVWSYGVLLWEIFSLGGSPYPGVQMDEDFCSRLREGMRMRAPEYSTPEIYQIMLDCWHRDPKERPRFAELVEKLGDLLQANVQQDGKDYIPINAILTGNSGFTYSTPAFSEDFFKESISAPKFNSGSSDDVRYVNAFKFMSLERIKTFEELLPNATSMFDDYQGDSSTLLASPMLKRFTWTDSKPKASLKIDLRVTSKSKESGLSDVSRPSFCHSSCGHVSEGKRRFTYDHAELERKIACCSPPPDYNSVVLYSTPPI
UniProt P35916: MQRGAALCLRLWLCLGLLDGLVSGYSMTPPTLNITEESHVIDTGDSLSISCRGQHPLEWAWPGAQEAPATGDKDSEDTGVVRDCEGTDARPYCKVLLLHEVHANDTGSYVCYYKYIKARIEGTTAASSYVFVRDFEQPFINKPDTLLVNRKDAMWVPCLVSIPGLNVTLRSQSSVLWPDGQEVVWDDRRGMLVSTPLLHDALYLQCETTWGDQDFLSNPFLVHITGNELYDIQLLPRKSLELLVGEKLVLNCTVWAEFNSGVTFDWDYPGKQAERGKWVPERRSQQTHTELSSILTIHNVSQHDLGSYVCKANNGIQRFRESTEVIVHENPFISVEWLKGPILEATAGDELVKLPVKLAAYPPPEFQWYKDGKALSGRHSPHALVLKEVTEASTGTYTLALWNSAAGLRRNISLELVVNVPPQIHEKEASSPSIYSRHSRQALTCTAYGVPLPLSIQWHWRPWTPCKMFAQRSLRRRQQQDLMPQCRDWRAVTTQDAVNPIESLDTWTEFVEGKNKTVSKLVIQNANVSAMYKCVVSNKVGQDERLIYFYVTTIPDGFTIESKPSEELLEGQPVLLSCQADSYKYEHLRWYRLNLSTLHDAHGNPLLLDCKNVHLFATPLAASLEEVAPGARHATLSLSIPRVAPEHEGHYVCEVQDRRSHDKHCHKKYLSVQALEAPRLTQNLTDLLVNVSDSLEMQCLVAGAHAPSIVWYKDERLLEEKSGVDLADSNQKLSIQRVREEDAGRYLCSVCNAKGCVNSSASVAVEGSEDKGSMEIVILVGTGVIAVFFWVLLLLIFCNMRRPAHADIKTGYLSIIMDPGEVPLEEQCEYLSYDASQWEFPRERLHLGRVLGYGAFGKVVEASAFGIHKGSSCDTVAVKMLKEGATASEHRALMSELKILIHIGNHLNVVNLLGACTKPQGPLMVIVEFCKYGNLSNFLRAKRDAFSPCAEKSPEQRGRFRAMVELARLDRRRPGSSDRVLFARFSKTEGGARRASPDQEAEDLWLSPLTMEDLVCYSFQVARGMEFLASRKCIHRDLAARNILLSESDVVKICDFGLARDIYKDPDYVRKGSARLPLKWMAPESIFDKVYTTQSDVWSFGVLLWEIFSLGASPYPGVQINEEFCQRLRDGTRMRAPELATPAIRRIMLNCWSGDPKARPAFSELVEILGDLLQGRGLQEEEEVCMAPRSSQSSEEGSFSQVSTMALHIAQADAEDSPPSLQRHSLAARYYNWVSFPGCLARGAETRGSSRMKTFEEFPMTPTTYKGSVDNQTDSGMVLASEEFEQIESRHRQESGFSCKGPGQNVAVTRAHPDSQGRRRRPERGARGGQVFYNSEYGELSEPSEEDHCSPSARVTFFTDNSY
UniProt P35968: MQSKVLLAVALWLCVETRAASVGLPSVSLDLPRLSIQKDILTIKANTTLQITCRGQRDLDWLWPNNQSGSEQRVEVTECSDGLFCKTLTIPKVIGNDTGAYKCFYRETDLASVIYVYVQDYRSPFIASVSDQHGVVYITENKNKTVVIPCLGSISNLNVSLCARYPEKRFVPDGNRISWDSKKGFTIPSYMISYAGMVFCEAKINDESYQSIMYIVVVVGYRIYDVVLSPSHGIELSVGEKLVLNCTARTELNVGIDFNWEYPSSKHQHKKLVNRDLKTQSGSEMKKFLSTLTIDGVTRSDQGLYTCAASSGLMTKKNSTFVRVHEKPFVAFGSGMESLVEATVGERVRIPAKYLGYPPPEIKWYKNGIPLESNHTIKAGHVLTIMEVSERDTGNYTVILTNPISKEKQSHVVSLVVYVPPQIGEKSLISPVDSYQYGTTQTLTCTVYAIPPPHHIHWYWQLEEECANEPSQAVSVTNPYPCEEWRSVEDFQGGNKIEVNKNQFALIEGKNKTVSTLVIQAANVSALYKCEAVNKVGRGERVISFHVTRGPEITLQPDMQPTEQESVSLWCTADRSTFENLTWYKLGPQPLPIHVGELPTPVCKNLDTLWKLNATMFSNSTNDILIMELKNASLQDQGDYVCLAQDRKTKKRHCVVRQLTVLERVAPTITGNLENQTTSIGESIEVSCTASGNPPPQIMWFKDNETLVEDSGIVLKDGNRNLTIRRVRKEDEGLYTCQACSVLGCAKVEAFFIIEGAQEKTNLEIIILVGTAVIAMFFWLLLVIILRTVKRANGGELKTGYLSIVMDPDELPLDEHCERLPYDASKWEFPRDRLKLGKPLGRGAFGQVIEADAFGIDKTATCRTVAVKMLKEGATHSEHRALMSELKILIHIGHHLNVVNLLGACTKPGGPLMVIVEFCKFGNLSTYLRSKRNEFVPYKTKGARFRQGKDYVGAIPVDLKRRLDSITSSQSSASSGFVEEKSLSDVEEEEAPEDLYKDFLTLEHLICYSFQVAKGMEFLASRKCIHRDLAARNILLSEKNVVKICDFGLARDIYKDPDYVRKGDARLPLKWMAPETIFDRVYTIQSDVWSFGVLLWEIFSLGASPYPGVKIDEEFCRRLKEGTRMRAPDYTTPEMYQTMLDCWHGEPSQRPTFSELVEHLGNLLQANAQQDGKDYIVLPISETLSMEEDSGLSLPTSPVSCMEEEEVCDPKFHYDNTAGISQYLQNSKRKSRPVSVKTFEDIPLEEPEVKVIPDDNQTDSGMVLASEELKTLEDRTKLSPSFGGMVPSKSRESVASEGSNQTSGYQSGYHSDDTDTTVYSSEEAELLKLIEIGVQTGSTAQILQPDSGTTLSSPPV

Assay [1] addresses Epidermal growth factor receptor (Homo sapiens, UniProt P00533).
Assay [2] deals with Vascular endothelial growth factor receptor (Homo sapiens, UniProt P17948+P35916+P35968). As to conditions: endothelial cell.
Assay [3] has as its target Vascular endothelial growth factor receptor 1 (Homo sapiens, UniProt P17948).

As usually defined, the IC50 is the concentration at which inhibition is half-maximal. A lower IC50 goes with higher potency.

In the case of `COc1cc2c(Nc3ccc(Br)cc3F)ncnc2cc1OC[C@@H]1CCCN(C)C1`, the IC50 in assay [1] was 200 nM.

Consider `COc1cc2c(Nc3ccc(Br)cc3F)ncnc2cc1OC[C@H]1CCCN(C)C1`, for which half-maximal inhibition in assay [1] (IC50) was put at 100 nM.

In the case of `COc1cc2c(Nc3ccc(Cl)cc3F)ncnc2cc1OCCCN1CCOCC1`, the IC50 came to 0.05 µM in assay [2] and 100 nM in assay [1].

Turning to `COc1cc2c(Nc3ccc(Br)cc3F)ncnc2cc1OCCC1CCN(C)CC1`, the IC50 in assay [2] was 0.06 µM; in assay [3] it was 150 nM; in assay [1], 200 nM.

In turn, `COc1cc2c(Nc3ccc(Br)cc3F)ncnc2cc1OCCC1CCNCC1` gave an IC50 in assay [1] of 200 nM.
